Patent US8933070B2, “Methods of targeting PTEN mutant diseases and compositions therefor” (University Health Network, priority 2010, dated 2015)

Amino acid sequences for entries named in this document (tags omitted). A change or cut given only in a name is not applied to a line headed by its entry. Residues count along the entry.
UniProt P00519, whole entry: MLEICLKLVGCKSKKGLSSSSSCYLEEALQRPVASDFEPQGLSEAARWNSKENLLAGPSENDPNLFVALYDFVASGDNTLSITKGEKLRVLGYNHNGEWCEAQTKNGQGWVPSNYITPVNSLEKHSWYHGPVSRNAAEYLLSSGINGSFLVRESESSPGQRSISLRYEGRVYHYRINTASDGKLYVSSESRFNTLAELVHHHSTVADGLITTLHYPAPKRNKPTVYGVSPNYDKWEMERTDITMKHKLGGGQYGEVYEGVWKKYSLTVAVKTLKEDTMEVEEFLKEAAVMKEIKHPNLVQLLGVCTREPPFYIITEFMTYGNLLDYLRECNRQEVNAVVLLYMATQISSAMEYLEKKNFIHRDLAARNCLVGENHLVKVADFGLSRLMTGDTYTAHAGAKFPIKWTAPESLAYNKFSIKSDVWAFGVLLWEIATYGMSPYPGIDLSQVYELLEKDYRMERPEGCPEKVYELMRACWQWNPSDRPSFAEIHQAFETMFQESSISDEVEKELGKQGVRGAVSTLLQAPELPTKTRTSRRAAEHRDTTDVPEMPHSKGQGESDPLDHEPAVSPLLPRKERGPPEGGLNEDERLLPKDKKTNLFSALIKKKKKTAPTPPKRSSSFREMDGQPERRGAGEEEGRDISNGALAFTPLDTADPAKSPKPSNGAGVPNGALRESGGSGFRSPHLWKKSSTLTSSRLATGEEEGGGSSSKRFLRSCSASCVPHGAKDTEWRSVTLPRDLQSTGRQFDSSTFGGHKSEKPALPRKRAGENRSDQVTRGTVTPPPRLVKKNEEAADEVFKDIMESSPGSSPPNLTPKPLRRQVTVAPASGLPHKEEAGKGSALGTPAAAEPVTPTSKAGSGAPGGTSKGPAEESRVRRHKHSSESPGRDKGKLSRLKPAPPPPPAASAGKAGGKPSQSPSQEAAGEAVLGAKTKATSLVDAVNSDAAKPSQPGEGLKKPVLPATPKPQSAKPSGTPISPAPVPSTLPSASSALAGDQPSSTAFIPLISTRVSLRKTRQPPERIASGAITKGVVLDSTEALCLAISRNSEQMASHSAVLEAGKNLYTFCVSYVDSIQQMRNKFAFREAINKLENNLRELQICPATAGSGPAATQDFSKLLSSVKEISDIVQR
UniProt P17948, 27-1338: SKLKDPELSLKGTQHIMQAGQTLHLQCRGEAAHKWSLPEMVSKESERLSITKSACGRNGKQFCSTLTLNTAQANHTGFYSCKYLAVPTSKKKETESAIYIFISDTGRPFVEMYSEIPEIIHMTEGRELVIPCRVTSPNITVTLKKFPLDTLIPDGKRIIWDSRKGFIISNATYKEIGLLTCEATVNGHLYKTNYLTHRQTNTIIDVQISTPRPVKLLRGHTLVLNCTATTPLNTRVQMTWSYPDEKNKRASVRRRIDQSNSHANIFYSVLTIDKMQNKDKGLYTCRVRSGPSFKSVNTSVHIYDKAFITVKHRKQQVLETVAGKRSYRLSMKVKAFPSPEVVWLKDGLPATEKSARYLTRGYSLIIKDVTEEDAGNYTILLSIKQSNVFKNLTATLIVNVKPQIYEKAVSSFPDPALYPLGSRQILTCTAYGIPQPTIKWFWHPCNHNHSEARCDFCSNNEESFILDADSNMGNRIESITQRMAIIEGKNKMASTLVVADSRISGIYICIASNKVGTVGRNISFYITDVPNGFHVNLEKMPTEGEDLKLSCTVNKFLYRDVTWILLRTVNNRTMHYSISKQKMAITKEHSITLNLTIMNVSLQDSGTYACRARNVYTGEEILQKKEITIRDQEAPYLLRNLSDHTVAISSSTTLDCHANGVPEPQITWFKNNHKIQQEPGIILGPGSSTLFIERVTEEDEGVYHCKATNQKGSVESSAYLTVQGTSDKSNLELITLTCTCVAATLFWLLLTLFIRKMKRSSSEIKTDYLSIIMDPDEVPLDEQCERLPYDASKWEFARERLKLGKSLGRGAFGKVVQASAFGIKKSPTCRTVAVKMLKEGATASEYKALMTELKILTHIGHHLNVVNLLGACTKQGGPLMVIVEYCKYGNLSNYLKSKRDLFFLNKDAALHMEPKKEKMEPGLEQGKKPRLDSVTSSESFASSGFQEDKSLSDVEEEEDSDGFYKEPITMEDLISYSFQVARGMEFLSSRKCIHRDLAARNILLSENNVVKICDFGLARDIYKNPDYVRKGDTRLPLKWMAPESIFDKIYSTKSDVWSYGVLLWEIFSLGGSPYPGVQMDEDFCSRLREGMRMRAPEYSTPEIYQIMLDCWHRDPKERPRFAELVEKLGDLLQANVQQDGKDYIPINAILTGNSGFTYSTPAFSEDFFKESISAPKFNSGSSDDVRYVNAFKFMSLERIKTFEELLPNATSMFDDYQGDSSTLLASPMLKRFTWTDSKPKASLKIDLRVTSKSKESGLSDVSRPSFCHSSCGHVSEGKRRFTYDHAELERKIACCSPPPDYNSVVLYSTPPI
UniProt P06239: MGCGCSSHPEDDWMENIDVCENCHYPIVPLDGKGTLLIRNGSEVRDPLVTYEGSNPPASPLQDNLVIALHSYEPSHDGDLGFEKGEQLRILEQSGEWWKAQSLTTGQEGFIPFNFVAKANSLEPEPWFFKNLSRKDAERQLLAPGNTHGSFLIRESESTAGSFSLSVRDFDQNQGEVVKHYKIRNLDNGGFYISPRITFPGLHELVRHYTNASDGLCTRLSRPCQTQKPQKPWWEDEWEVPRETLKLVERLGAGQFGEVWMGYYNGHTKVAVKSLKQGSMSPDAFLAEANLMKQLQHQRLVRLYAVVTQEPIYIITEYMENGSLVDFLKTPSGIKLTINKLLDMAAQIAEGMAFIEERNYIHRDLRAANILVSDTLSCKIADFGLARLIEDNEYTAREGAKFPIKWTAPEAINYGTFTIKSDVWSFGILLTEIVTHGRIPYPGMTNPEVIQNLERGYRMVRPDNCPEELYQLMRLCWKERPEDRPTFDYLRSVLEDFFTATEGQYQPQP
UniProt P07948: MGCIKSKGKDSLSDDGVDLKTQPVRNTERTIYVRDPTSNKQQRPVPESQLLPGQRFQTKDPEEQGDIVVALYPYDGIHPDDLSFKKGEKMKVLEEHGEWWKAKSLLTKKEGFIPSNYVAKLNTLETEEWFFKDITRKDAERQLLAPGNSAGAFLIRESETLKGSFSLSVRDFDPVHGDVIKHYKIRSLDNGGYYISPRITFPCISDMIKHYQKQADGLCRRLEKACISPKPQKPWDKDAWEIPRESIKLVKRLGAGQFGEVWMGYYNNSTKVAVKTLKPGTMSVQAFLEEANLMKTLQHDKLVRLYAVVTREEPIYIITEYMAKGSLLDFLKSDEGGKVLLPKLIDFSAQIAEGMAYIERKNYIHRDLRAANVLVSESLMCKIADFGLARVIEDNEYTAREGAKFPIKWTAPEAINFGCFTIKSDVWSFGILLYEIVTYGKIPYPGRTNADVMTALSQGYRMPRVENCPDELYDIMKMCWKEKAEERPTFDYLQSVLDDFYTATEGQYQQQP
UniProt P04629, 33-796: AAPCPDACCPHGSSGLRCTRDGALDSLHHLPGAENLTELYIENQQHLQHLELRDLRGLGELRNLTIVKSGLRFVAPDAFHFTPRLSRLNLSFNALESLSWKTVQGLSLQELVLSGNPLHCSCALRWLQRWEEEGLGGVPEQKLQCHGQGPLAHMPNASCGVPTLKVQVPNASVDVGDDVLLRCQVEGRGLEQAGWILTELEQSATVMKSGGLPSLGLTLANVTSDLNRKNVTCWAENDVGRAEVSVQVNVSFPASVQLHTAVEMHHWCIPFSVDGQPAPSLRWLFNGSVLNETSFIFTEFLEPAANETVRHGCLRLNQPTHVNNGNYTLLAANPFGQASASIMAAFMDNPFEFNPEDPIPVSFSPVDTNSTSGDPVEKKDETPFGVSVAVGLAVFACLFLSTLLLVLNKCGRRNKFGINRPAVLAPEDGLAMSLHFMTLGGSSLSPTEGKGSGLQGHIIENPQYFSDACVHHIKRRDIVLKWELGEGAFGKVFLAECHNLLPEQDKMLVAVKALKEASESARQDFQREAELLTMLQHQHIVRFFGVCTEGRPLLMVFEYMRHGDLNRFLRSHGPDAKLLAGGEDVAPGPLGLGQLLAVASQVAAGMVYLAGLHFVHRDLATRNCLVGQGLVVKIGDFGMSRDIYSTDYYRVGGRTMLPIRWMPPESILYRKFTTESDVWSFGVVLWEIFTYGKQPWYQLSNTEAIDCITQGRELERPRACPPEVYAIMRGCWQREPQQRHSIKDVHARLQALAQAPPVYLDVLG
UniProt Q16539, whole entry: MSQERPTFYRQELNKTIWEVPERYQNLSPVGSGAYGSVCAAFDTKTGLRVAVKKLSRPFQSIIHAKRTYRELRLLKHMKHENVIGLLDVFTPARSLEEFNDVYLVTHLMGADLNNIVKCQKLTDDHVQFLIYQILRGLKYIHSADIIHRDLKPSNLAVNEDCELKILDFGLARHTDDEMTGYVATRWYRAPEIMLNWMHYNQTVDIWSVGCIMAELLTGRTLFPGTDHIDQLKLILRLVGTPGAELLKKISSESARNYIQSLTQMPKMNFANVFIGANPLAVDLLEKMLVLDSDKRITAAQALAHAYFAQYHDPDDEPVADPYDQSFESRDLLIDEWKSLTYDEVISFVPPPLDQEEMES

Experiments:
Assay in all cases: Kinase selectivity assay (CEREP, HTRF)
Type in all cases: biochemical
Settings in all cases: read-out: % Inhibition at 10 μM Concentration
[1] = molecular target: Abl kinase (Homo sapiens, UniProt P00519)
Method: (§1) The inhibitory activity of selected compounds was evaluated against a panel of 45 different kinase enzymes by CEREP, France. The assays were performed using standard HTRF assay methods as documented by CEREP against the human orthologues of Abl kinase, Akt1/PKBa, AMPKa, BMX kinase (Etk), Brk, CaMK2a, CaMK4, CDC2/CDK1 (cycB), CHK1, CHK2, c-Met kinase, CSK, EphB4 kinase, ERK1, ERK2 (P42mapk), FGFR2 kinase, FGFR4 kinase, FLT-1 kinase (VEGFR1), FLT-3 kinase, Fyn kinase, IGF1R kinase, IRK (InsR), JNK 2, KDR kinase (VEGFR2), Lck kinase, Lyn kinase, MAPKAPK2, MEK1/MAP2K1, p38a kinase, p38d kinase, p38g kinase, PDGFRb kinase, PDK1, PKA, PKCa, PKCb1, PKCb2, PKCg, Ret kinase, ROCK2, RSK2, Src kinase, Syk, and TRKA. The % Inhibition was determined by the formula; % Inhibition=100×(1−(experimental value−background value)/(high activity control−background value)).

[2] = molecular target: FLT-1 (VEGFR1) (Homo sapiens, UniProt P17948)
Method: as §1

[3] = molecular target: JNK 2 (Homo sapiens, UniProt P45984)
Method: as §1

[4] = molecular target: Lck (Homo sapiens, UniProt P06239)
Method: as §1

[5] = molecular target: Lyn (Homo sapiens, UniProt P07948)
Method: as §1

[6] = molecular target: Src (Homo sapiens, UniProt P12931)
Method: as §1

[7] = molecular target: TRKA (Homo sapiens, UniProt P04629)
Method: as §1

[8] = molecular target: p38alpha (Homo sapiens, UniProt Q16539)
Method: as §1

SMILES: COc1ccc2c(c1)[C@@]1(C[C@@H]1c1ccc3c(-c4ccc(N5CCN(C)CC5)nc4)n[nH]c3c1)C(=O)N2 (racemic) [Compound 2]
- inhibition at 10 µM [1]: 91%
- inhibition at 10 µM [2]: 22%
- inhibition at 10 µM [3]: 11%
- inhibition at 10 µM [4]: 71%
- inhibition at 10 µM [5]: 15%
- inhibition at 10 µM [6]: 13%
- inhibition at 10 µM [7]: 93%
- inhibition at 10 µM [8]: -28%
